The values below are quoted from earlier work in patent US8242152B2, “Use of 4-[(4-thiazolyl)phenoxy]alkoxy-benzamidine derivatives for the prophylaxis and treatment of osteoporosis” (Dong Wha Pharmaceutical Co., Ltd., priority 2001, dated 2012).

Protein sequences, listed by entry. Tags and fused reporters are not part of them. Lines headed by an entry give the natural chain unless they say otherwise; changes in a name come on top.
UniProt Q15722: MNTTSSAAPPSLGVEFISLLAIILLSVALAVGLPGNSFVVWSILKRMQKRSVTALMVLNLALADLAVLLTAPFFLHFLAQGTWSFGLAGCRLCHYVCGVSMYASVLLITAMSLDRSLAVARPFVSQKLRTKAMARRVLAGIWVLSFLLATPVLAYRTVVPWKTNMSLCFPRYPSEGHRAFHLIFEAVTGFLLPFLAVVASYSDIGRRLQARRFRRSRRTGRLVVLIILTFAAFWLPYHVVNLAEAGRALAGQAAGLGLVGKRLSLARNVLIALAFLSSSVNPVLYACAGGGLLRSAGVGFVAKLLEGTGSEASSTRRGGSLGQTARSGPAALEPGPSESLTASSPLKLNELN

Like-named read-outs stand apart in the source and are kept apart here.

Broadly, the IC50 is the concentration needed to halve the response being measured.

The target in the series is LTB4 receptor (Homo sapiens, UniProt Q15722). More on the design: endogenous in cells; host or cells: human neutrophils (PMN) purified from fresh blood. Particulars: cited from earlier work.

Regarding “4-[5-[4-(aminoiminomethyl)phenoxy]pentoxy]-3-methoxy-N,N-bis(1-methylethyl)benzamide maleic acid [CGS-25019C]”, the “Inhibition (%) of LTB4 receptor binding” value is on record as 25% (10 nM), 84% (100 nM) and 99% (1 uM). Further, for the setting “read-out: IC50 (nM) LTB4 receptor binding”, the IC50 was 41.2 nM.
